Laboratory results: publication PMC9174471
The other results are listed elsewhere or left out.

Biological target: Obg-like ATPase 1 (UniProt Q9NTK5)
Assay: cross-link between two proteins; cross-linking mass spectrometry

Listed as a hit, yes:
Histone H1.10, Q92522
Histone H2B type 1-L, Q99880
Small ribosomal subunit protein uS12, P62266
Histone H2B type 1-B, P33778
